“And” between values parts separate entries of the source, which are not always exact repeats. Equal entries are not always repeated.
How the values were obtained:
[1] = test system: blood-brain barrier (BBB); experiment: Multiple time regression (MTR) analysis, blood-to-brain influx; format: in vivo, ICR-CD-1 mice; settings: whole brain, ± 65% confidence limits
[2] = In vitro metabolic stability in mouse liver homogenate; format: in vitro ADME; settings: mouse liver homogenate 0.6 mg/ml protein (500 μl, 300 μg protein) + Krebs-Henseleit buffer pH 7.4, 0.1 mg/ml peptide, 37°C, 750 rpm, 0-120 min, HPLC-UV 215 nm
Description: (§1) Prior to use, the protein content of each homogenate was determined using the Pierce Modified Lowry Protein Assay method (Thermo Scientific) to generate a stock solution with a protein concentration of 0.6 mg/ml by dilution with Krebs-Henseleit buffer (pH 7.4, Sigma-Aldrich). […] After sampling, enzymatic activity was terminated by additional heat inactivation at 95°C for 5 min, followed by cooling the samples in an ice bath for 30 min. […] Therefore, a solid phase extraction (SPE) protocol using an Oasis® WCX μelution plate (Waters, Zellik, Belgium) was used prior to HPLC-UV analysis. In the Supporting Information, the protocol of the SPE extraction procedure is described (S1 Text). Blank control solutions were prepared as described above, but without adding the peptide. To confirm chemical stability and mass balance, control reference solutions without tissue homogenate or with a prior heat inactivation were analyzed as well. The HPLC-UV system consisted of a Waters Alliance 2695 separation module and a Waters 2996 photodiode array (PDA) detector (detection from 190-400 nm, quantification at 215 nm), fitted with Empower 2 software for data handling (Waters). […] Appropriate gradients for separation of the peptides and their metabolites were created by mixtures of water (0.1% trifluoroacetic acid m/V) and acetonitrile (0.1% trifluoroacetic acid m/V).

[3] = test system: brain parenchyma and capillaries; experiment: Capillary depletion method: brain parenchyma/capillary distribution; format: in vivo; settings: capillary depletion, 10 min after IV injection of radiolabeled peptide (200 μl, 10000 cpm/μl), brain perfused with lactated Ringer's buffer, two ICR-CD-1 mice, gamma counter
Description: The capillary depletion method was used to evaluate the distribution of the peptide between the brain parenchyma and capillaries. In summary (see Materials and Methods in [45]), 200 μl of a radiolabeled peptide solution (10000 cpm/μl) was injected in the jugular externalis vein of two anesthetized ICR-CD-1 mice. Ten minutes after IV injection, mice were decapitated and brains were collected and measured for radioactivity. […] The resulting homogenate was weighed and centrifuged at 5400 g for 30 min at 4°C, resulting in a pellet, i.e. capillaries, and supernatant, i.e. parenchyma and fat tissue, which were weighed and measured in the gamma counter. […] Compartmental distribution was calculated as follows: Fractioncapillaries or parenchyma (%)=[…] or parenchyma/[…]×100 (4)

[4] = test system: blood-brain barrier (BBB); experiment: Classification of peptides according to their BBB influx; settings: classification method of ref [61] applied to the measured influx
[5] = test system: blood-brain barrier (BBB); experiment: Brain-to-blood transport (efflux) after intracerebroventricular injection; settings: ICR-CD-1 mice
[6] = In vitro metabolic stability in mouse brain homogenate; format: in vitro ADME; settings: mouse brain homogenate 0.6 mg/ml protein (500 μl, 300 μg protein) + Krebs-Henseleit buffer pH 7.4, 0.1 mg/ml peptide, 37°C, 750 rpm, 0-120 min, HPLC-UV 215 nm
Description: as §1

[7] = test system: blood-brain barrier (BBB); experiment: Saturability of brain influx: MTR with and without excess unlabeled peptide; format: in vivo; settings: no-carrier added radiolabeled peptide with and without 10 μg unlabeled peptide, IV, ICR-CD-1 mice; Kin not different, P > 0.05
Description: This dose of 20 μg was determined based on the amount of peptide injected during a MTR experiment estimated based on the specific activity and taking into account the amount of non-radioactively iodinated peptide present in the injected dose. […] During this experiment, peptides are radiolabeled using a no-carrier added method in order that only radioactively labeled peptide was injected.

[8] = In vitro metabolic stability in mouse kidney homogenate; format: in vitro ADME; settings: mouse kidney homogenate 0.6 mg/ml protein (500 μl, 300 μg protein) + Krebs-Henseleit buffer pH 7.4, 0.1 mg/ml peptide, 37°C, 750 rpm, 0-120 min, HPLC-UV 215 nm
Description: as §1

[9] = test system: blood-brain barrier (BBB); experiment: Regional variation in brain influx (MTR, dissected brain regions); settings: comparison of slopes (Kin), Prism 6, P threshold 0.05, ICR-CD-1 mice
[10] = In vitro metabolic stability in mouse serum; format: in vitro ADME; settings: mouse serum 500 μl + 400 μl Krebs-Henseleit buffer pH 7.4 + 100 μl 1 mg/ml peptide, 37°C, 750 rpm, sampling 0-120 min plus early points, HPLC-UV 215 nm, t1/2 = -ln(2)/slope
Description: as §1

Substance: TP10
- Kin (unidirectional influx rate), linear Gjedde-Patlak model ([1]; 125I-radioiodinated peptide, IV jugular vein 200 μl (30000 cpm/μl), anesthetized female ICR-CD-1 mice, 1-15 min, brain/serum radioactivity (gamma counter) vs exposure time, pVEC, SynB3, TP10: two experiments fitted together): 0.05 µL/g/min and 0.05 ± 0.04 µL/g/min
- Vi (initial brain distribution volume), linear Gjedde-Patlak model ([1]; 125I-radioiodinated, IV, ICR-CD-1 mice, MTR 1-15 min): 9.88 ± 0.66 µL/g
- Half-life, liver [2]: 2.323 h
- Parenchymal fraction [3]: 85%
- BBB influx class [4]: class 1
- kout (efflux transfer constant) ([5]; 1 μl radioiodinated peptide (25000 cpm/μl) in lateral ventricle, 1-15 min, slope of ln(brain activity) vs time): 0.09 ± 0.02 min⁻¹
- t1/2,brain (half-time disappearance) ([5]; ln(2)/kout after intracerebroventricular injection): 8 min
- Half-life, brain [6]: 2.932 h
- Saturability of the brain influx mechanism [7]: not saturable
- Half-life, kidney [8]: 0.572 h
- Difference in brain influx rates between the eight dissected brain regions [9]: no statistically significant difference
- Half-life, serum [10]: 21.93 h

— article PMC4605843, “Cell-Penetrating Peptides Selectively Cross the Blood-Brain Barrier In Vivo” (PLoS ONE, 2015)
